These results are taken from PMC5354670, “Blockade of the malignant phenotype by β-subunit selective noncovalent inhibition of immuno- and constitutive proteasomes” (Oncotarget, 2017).

The test system of one test is cCP, ChT-L activity. The conditions noted are these: read-out: IC50 ChT-L activity, cCP; R1 = 4-BrC6H4, R2 = 3,4-di-MeOC6H3; cited from earlier work.
The target in the next test is iCP, ChT-L activity (Homo sapiens, UniProt P28062). Briefly: Inhibition of ChT-L activity of iCP by oxadiazole A4 (unpublished result). The conditions noted are these: read-out: IC50 ChT-L activity, iCP, R1 = 4-BrC6H4, R2 = 3,4-di-MeOC6H3.

On to `COc1ccc(-c2noc(CN(C(=O)COc3ccc(Br)cc3)C(C)C)n2)cc1OC`, for which the IC50 – broadly, the point on the concentration scale where inhibition reaches its midpoint – in the test on cCP, ChT-L activity is 37 nM; at iCP, ChT-L activity, 140 nM.
